Tested on: THP-1 cell adhesion to CXCL8-treated HMEC-1
Type: cell-based, human
Conditions: at a high peptide concentration; 25 ng/ml CXCL8, THP-1 on HMEC-1, mean from three independent experiments
Experimental: Human micro-vascular endothelial cell-1 (HMEC-1, from American Type Culture Collection Manassas, USA) was maintained in MCDB 131 medium (Sigma, USA) with L-glutamine and fetal bovine serum (Sigma, USA) to a final concentration of 15%. The medium was supplemented with 500 units/ml penicillin (Biowest, USA), 500 μg/ml streptomycin (Biowest, USA), 10 ng/ml Epidermal Growth Factor (ProSpec, USA) and 1 µg/ml hydrocortisone (Sigma, USA). The THP-1 cells were maintained in the RPMI-1640 medium (Invitrogen, USA) with 10% FBS. For the assay of THP-1 cell adhesion to HMEC-1 monolayers, confluent HMEC-1 cell monolayers cultured on 24-well plates were pretreated with peptides for one hour and activated with 25 ng/ml LPS (Sigma, USA) or full length CXCL8 (ProSpec, USA) for 18 hours. THP-1 monocytes were suspended in RPMI 1640 and prelabeled with 5 mM Calcein-AM (Invitrogen, USA) for 30 minutes. Before the THP-1 cells were added to HMEC-1, the monolayers were washed twice to remove LPS or CXCL8. Fluorescence labeled monocytes (3 × 10^5 cells/well) were then added to HMEC-1 and incubated for 30 minutes at 37 °C. […] The images of adhered THP-1 cells were photographed (five images per well) under fluorescent microscopy and the number of attached monocytes was counted with the software AlphaImager 2200 (Alpha Innotech, USA).

SMILES | monocyte binding [%]
CC[C@H](C)[C@H](NC(=O)[C@H](Cc1ccccc1)NC(=O)[C@H](CCCCN)NC(=O)[C@@H]1CCCN1C(=O)[C@H](Cc1c[nH]cn1)NC(=O)[C@H](Cc1ccccc1)NC(=O)[C@@H]1CCCN1C(=O)[C@H](CCCCN)NC(=O)[C@H](CO)NC(=O)[C@H](Cc1ccc(O)cc1)NC(=O)[C@@H](NC(=O)[C@H](CCCCN)NC(=O)[C@@H](NC(=O)[C@H](CS)NC(=O)[C@H](CCC(N)=O)NC(=O)[C@H](CS)NC(=O)[C@@H](N)CCCNC(=N)N)[C@@H](C)CC)[C@@H](C)O)C(=O)N[C@@H](CCCCN)C(=O)O [p_wt18] | 95
CC[C@H](C)[C@H](NC(=O)[C@H](CS)NC(=O)[C@H](CCC(N)=O)NC(=O)[C@H](CS)NC(=O)[C@@H](N)CCCNC(=N)N)C(=O)N[C@@H](CCCCN)C(=O)N[C@H](C(=O)N[C@@H](Cc1ccc(O)cc1)C(=O)N[C@@H](CO)C(=O)N[C@@H](CCCCN)C(=O)N1CCC[C@H]1C(=O)N[C@@H](Cc1ccccc1)C(=O)N[C@@H](Cc1c[nH]cn1)C(=O)N1CCC[C@H]1C(=O)N[C@@H](CCCCN)C(=O)N[C@@H](Cc1ccccc1)C(=O)O)[C@@H](C)O [p_wt16] | 85

Reference: article PMC4686899, “Peptides derived from CXCL8 based on in silico analysis inhibit CXCL8 interactions with its receptor CXCR1” (Scientific Reports, 2015)
